Several values for one entry are separate records, joined by “and”; a condition that tells them apart may be missing. Equal values may be shown once.
B1: Tyrosine hydroxylase, full-length human isoform TH1 (enzyme)
chain: not shown
notes: human tyrosine hydroxylase, isoform TH1 (the shortest isoform; models end at residue 497; TH4 is 31 residues longer); numbers count on: isoform TH1; TH(DA) is the same protein incubated with ferrous ammonium sulfate (1:1) and dopamine (2:1 per subunit); also called apo-TH; not shown: His, N-terminal, cleaved; MBP, N-terminal, cleaved
B2: Tyrosine hydroxylase phosphorylated on S40 (THS40p) (enzyme)
chain: not shown
modifications: phosphoserine at 40 (phosphorylation stoichiometry 0.98 ± 0.03)
notes: human tyrosine hydroxylase, isoform TH1; numbers count on: isoform TH1; The reconstruction was made with D2 symmetry imposed; also called S40 phosphorylated TH; pS40-TH; source: recombinant TH purified as m1, then phosphorylated in vitro with the catalytic subunit of cAMP-dependent protein kinase; not shown: His, N-terminal, cleaved; MBP, N-terminal, cleaved

How the values were obtained:
[1] = biological target: the molecule itself; experiment: SEC; gel filtration of purified TH on Superdex 200 Increase 3.2/300, 4 °C
[2] = biological target: the molecule itself; experiment: cryo-EM structure; no dopamine added (apo-TH; THS40p); vitrified on UltraAufoil grids; D2 symmetry applied

Row | Protein | stoichiometry N [1] | binding result [2]
1 | B1 | 4 and 8 | 
2 | B2 |  | binds

From article PMC8748767 (Nature Communications, 2022)
